Test system: MKs
Details: live-cell microscopy

trastuzumab emtansine [T-DM1]
MK differentiation: inhibits
proPLT formation: disrupts
tubulin organization (GFP-β1 tubulin): abnormal
